The text below walks through data of PubChem BioAssay AID504775 (Broad Institute, 2011).

This is a selection; strong and weak results do not stand in their true shares. The source made the active and inactive calls.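 How the source made its calls: active means mean replicate activation of at least 60% and every replicate at or above 60%; inconclusive means mean or all-replicate condition met, but not both; inactive means mean below 60% and not all replicates reaching 60%.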

A short description of the assay: enhancers of HDL lipid transfer via mSR-BI – ldlA[mSR-BI] CHO cells, DiI fluorescence, primary screen (AID 504775).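 Further: 0% = median plate neutral-control signal and 100% = twice that signal.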 The note with it: DiI-HDL uptake fluorescence, 3 h, at 12.5 µM, hits give high values, 100 = double the neutral-control signal. An outline of the steps: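 System: LDL receptor-deficient CHO ldlA cells overexpressing murine SR-BI | Timing: 3 h uptake period with compound, 37 °C | Medium: HEPES-buffered (25 mM, pH 7.4) F12 plus 0.5% BSA | Dosing: Single-point compound dose | Signal: Bottom-read fluorescence, 550/595 nm | Read-out: Retained DiI signal reflecting DiI-HDL uptake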
Regarding `CCC(=O)N(c1ccccc1)C1(COC)CCN(CCc2cccs2)CC1`, the activation was inactive: 9.44%. The value for `CCC(=O)N(c1ccccc1)C1(COC)CCN(CCn2nnn(CC)c2=O)CC1` was inactive: 15.2%.
